# AlphaSeq binding of Ab-95 light chain variants to a spike HR2 peptide

Reference: Engelhart et al. 2022, doi:10.1038/s41597-022-01779-4. File: FLAb, binding data.

Target: peptide PDVDLGDISGINAS, taken from heptad repeat 2 (HR2) of SARS-CoV-2 spike.

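Library AAYL52 holds single substitutions and randomly drawn double and triple substitutions in the CDRs. Affinity was read by AlphaSeq, a pooled yeast mating assay with surface-displayed partners. Binding brings cells together so that they mate, and sequencing counts the barcode pairs among the diploids. A regression on co-assayed BCL2-family reference pairs converts the normalised counts of each replicate to an apparent Kd. Each pool was mated in three replicate cultures.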

Parent scFv Ab-95: VH joined to VL by a 15-residue (Gly4Ser)3 linker. Changes lie in the light chain CDRs alone.
VH: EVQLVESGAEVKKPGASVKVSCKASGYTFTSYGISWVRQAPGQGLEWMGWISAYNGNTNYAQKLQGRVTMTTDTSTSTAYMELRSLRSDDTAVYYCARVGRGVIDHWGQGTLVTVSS
VL: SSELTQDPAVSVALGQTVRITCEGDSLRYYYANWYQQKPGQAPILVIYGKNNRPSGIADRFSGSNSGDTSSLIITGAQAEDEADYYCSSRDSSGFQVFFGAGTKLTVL

Each variant is given by its three light chain CDRs, as the data file delimits them; those of the parent are EGDSLRYYYAN, GKNNRPS, SSRDSSGFQVF.
This list gathers variants with a substitution at Q96 (VL, numbered from residue 1).
The read-out is the apparent dissociation constant on a log10 scale (nM): the lower, the stronger.
Averages over replicates are reported, and they cover detected replicates only.
"n.d." marks a missing value. The strain was present, yet no cells mated with the target were sequenced in that replicate, which points to weak or no binding.
As a blank, each scFv also met three strains without target: over library AAYL52, 28% of these pairings were detected, typically at 3.91 and seldom below 2.90.

CDR-L1,CDR-L2,CDR-L3,"log10 Kd, replicates","mean, log10 nM"
EGDDLRYYYAN,GKDNRPS,SSRDSSGFWVF,5.36 n.d. n.d.,5.36
EADFLRYYYAN,GKNNRPS,SSRDSSGFPVF,3.32 3.07 n.d.,3.19
EGDSLRYYYAN,WKNNRPS,SSYDSSGFTVF,3.98 n.d. n.d.,3.98
EGDSLRYYYAN,YKNNRPS,SSRDSDGFDVF,n.d. n.d. n.d.,n.d.
EGDNLRYYYAN,GKNNRPS,SDRDSSGFGVF,2.43 2.98 2.58,2.66
EGDSLRYYYAN,GKNNRIS,SSRQSSGFEVF,4.44 n.d. n.d.,4.44
EGDSLRYYYAY,EKNNRPS,SSRDSSGFDVF,4.14 3.62 n.d.,3.88
EGDSLRYYEAN,GKNNRPC,SSRDSSGFAVF,2.04 1.59 1.47,1.70
EGDSLRYYYAN,GKNNRPE,SSWDSSGFEVF,2.60 2.33 1.54,2.16
EGDSLRYYYAN,GKNNRPS,SSRDSDGFGVF,3.25 4.22 n.d.,3.74
EGQSLRYYYAN,GKNNRPS,SSRDFSGFVVF,n.d. 4.77 n.d.,4.77
EQDSLRYYYAN,GKNNRPS,SSRGSSGFVVF,3.88 3.65 n.d.,3.77
EGDSLRYYYAN,GKNNRPS,SHPDSSGFIVF,n.d. n.d. n.d.,n.d.
EGDSLRYYYAN,GKWNRPS,SSRDSSKFGVF,5.26 4.27 3.00,4.17
NGDSLRYYYAN,GKNNRPS,SRRDSSGFDVF,2.79 3.15 2.66,2.87
EGDSLRYYYAN,GKINRPS,SSVDSSGFTVF,4.37 4.90 n.d.,4.64
EGDSLRYYKAN,GKNNRPS,SSRDSNGFKVF,3.93 2.87 2.94,3.25
EGDSLRYYYAN,GKNNRPS,SSRDSSGWDVF,3.97 3.39 3.20,3.52
ENDSLRYYWAN,GKNNRPS,SSRDSSGFNVF,2.93 3.49 n.d.,3.21
EGDKLRYYYAN,GKNMRPS,SSRDSSGFSVF,n.d. 4.15 n.d.,4.15
EGDSLRYYYAT,GKNNRPS,ESRDSSGFHVF,n.d. 2.86 n.d.,2.86
EGDSLRYYYAN,GKNGRPS,SSRDSSGFFVF,2.57 2.88 2.60,2.68
EGDSLLYYYAN,GKNNRPS,SSRDSSGFKVF,4.07 3.72 4.04,3.95
EGDSLRYYYAS,GKNNRPS,SSRDSSGFSVF,4.50 4.00 n.d.,4.25
AGDSLRYYYAN,GKNNRPS,SSRKSSGFPVF,2.46 1.94 1.94,2.11
EGDSLRYYYAF,GKNNYPS,SSRDSSGFKVF,5.38 n.d. n.d.,5.38
EGDSLRYYYAN,GKKNRPS,SYRDSSGFWVF,n.d. 4.93 n.d.,4.93
EGDSLREYYAN,GKNNRPS,SSRISSGFFVF,3.61 n.d. n.d.,3.61
EGDSLKYYYAN,RKNNRPS,SSRDSSGFFVF,n.d. n.d. n.d.,n.d.
HGDSLRYYYAN,GKNNRPS,SSRDSSCFYVF,2.56 2.92 3.15,2.88
EGDSCRYYYAN,GKNNRPS,SSRDSSTFDVF,n.d. 4.75 n.d.,4.75
EGDSLRYYYAN,GKNNRPS,SHRDSSGFYIF,3.73 n.d. n.d.,3.73
EGDSLRYYYAN,GKNNRLS,VSRDSSGFPVF,n.d. 3.62 n.d.,3.62

The first 3 variants above that were never detected:

CDR-L1,CDR-L2,CDR-L3,"log10 Kd, replicates","mean, log10 nM"
EGDSLRYYYAN,YKNNRPS,SSRDSDGFDVF,n.d. n.d. n.d.,n.d.
EGDSLRYYYAN,GKNNRPS,SHPDSSGFIVF,n.d. n.d. n.d.,n.d.
EGDSLKYYYAN,RKNNRPS,SSRDSSGFFVF,n.d. n.d. n.d.,n.d.